# Earlier results in patent US10669261B2, “Heteroarylhydroxypyrimidinones as agonists of the APJ receptor” (BRISTOL-MYERS SQUIBB COMPANY, priority 2015, dated 2020).
# The chains behind the UniProt entries cited, without tags or fusion partners. Where a name states a change or a piece, a line headed by the entry shows the natural chain unless it says otherwise.
# UniProt P35414: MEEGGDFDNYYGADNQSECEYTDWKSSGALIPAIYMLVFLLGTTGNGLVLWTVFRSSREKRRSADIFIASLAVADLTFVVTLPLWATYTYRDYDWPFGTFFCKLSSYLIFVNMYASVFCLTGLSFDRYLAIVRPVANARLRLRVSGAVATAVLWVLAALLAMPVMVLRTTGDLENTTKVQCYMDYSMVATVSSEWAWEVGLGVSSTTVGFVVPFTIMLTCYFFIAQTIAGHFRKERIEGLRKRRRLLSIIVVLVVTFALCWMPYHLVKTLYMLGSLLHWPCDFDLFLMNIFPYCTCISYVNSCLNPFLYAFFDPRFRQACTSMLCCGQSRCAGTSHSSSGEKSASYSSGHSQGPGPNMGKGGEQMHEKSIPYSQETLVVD
# Molecular target: APJ receptor (Homo sapiens, UniProt P35414)
# Conditions: cited from earlier work
substance,measurement,value
apelin,binding affinity,sub-nanomolar
